Assay results as given in patent publication US9624254B2, “Hydroxysafflor yellow pharmaceutical salts” (ZHEJIANG YONGNING PHARMACEUTICAL CO LTD, priority 2013, dated 2017).
Like-named read-outs stand apart in the source and are kept apart here.

Assay type: physicochemical
Conditions: for Content: calculated as hydroxysafflor yellow A

Row | Compound | Content (Accelerated 0 month) [%] | Total purity (Accelerated 0 month) [%] | Total purity (Accelerated 1 month) [%] | Content (Accelerated 1 month) [%] | Total purity (Accelerated 2 months) [%] | Content (Accelerated 2 months) [%] | Total purity (Accelerated 3 months) [%] | Content (Accelerated 3 months) [%]
1 | O=C(/C=C/c1ccc(O)cc1)C1=C(O)C(O)(C2OC(CO)C(O)C(O)C2O)C([O][Ca][O]C2=C(C3OC(CO)C(O)C(O)C3O)C(=O)C(C(=O)/C=C/c3ccc(O)cc3)=C(O)C2(O)C2OC(CO)C(O)C(O)C2O)=C(C2OC(CO)C(O)C(O)C2O)C1=O (stereo not drawn) [Calcium hydroxysafflor yellow A] | 96.2 | – | – | – | – | – | – | –
2 | Potassium hydroxysafflor yellow A | 92.5 | 1.5 | 1.8 | 92.2 | 2.2 | 91.8 | 2.8 | 91.3
